Results as given in patent US8012949B2, “Bisphosphonate compounds and methods with enhanced potency for multiple targets including FPPS, GGPPS, and DPPS” (The Board of Trustees of the University of Illinois, priority 2004, dated 2011).

Amino acid sequences for entries named in this document (tags omitted).
UniProt Q5T2R2, whole entry: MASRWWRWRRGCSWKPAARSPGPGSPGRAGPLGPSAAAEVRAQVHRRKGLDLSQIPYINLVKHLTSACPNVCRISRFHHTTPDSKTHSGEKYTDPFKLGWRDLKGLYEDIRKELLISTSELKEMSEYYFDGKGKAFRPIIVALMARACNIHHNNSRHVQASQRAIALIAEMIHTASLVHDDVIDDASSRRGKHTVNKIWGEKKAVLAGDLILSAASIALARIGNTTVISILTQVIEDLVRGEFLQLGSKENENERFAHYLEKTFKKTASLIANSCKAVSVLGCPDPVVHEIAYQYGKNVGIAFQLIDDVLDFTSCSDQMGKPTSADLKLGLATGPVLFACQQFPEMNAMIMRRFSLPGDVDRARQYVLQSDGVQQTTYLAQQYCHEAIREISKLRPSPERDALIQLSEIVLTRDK
UniProt Q86YH6, whole entry partner: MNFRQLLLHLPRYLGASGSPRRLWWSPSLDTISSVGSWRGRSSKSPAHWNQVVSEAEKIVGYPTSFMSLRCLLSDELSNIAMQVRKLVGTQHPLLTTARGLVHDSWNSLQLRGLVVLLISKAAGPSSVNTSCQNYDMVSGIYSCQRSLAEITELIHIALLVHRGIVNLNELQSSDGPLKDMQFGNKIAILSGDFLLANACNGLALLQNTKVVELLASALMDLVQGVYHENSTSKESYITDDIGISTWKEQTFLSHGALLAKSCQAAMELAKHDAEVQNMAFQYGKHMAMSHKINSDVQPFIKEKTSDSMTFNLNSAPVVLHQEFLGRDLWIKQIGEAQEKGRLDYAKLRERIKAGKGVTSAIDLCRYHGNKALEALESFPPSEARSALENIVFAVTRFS

Assays:
Settings in all cases: Table 1, experimental; tested form: inner salt (zwitterion) as drawn
[1] = tested on: MCF-7 (breast adenocarcinoma); assay: MCF-7 cell growth inhibition (MTT), incl. FOH/GGOH rescue; type: cell-based, human
[2] = tested on: NCI-H460 (lung large cell); assay: NCI-H460 cell growth inhibition (MTT); type: cell-based, human
[3] = target: human DPPS (Homo sapiens, UniProt Q5T2R2); assay: human DPPS enzyme inhibition; type: biochemical

CCCCCCC#Cc1ccc[n+](CC(P(=O)([O-])O)P(=O)(O)O)c1 (stereo not drawn)
MCF-7 pIC50 (M) [1]: 5.3 M | NCI-H460 pIC50 (M) [2]: 6.0 M | DPPS_pKi [3]: 7.0 M
